Data published in paper PMC4764553 (eLife, 2016).

Molecular target: Xenopus laevis histone H2B 1.1 (in the NCP crystal) (Xenopus laevis, UniProt P02281 1-126)
Assay: crystal structure
Conditions: both partners purified

## GGKSTHPMVTRSKADQ [IE1-CTD peptide (chromatin-tethering domain of hCMV IE1, a.a. 476–491)]
  binding result: binds
